Measurements taken from US9675065B2 (priority 2011, dated 2017).

Legend:
[1] = octanol/water, parent acid; cited from earlier work
[2] = Storage stability of alkaline pH acetyl chlorate, gas release on ceramic cylinder after activation; settings: NaHCO3 added
[3] = Stability with acidified silver chloride catalyst, gas formation on ceramic cylinder; settings: 10 ml of 5 wt % stock solution + 100 microliters acidified silver chloride

| Compound | reported Log P [1] | gas release from ceramic cylinder sustained for ([2]; after 72 hours storage at pH 9.61, HCl to pH 6.0) | gas release from ceramic cylinder sustained for ([2]; after 14 days storage at pH 9.61, HCl to approximately pH 6.0) | gas release from ceramic cylinder sustained for ([2]; after 21 days storage at pH 9.61, HCl to approximately pH 6.0) | gas release from ceramic cylinder sustained for ([2]; freshly made solution, final pH 9.61, HCl to pH 5.5) | gas formation on the test cylinder [3] |
| --- | --- | --- | --- | --- | --- | --- |
| furoic acid | about 0.6 |  |  |  |  |  |
| CC(=O)O[Cl+2]([O-])[O-] |  | greater than 10 minutes | greater than 10 minutes | greater than 10 minutes | greater than 10 minutes | no gas formation |
